This note sets out measurements from US11542481B2, “Morphinan N-demethylase isolated from the methylobacterium thebainfresser and methods of use thereof” (priority 2017, dated 2023).

In this assay the test system is MND enzyme. Type of assay: biochemical, Methylobacterium Thebainfresser. As to conditions: overnight enzyme assay at 30° C., 7.5 μM substrate, ~36 μg purified MND enzyme, pH 8.0; reduction of substrate vs empty vector control; percentages approximate. The protocol: Samples were injected by the UFLCXR (Shimadzu) autosampler/pump system using a 0.5 ml/min flow rate prior to separation using a Gemini C-18 column (150×2.00 mm, 5μ, 110 Å; Phenomenex) and introduction into the QTRAP 6500. The program consisted of a binary gradient with solvent A (5% acetonitrile/5% MeOH/10 mM ammonium acetate/15 mM NH4OH) and solvent B (90% acetonitrile/10 mM ammonium acetate/15 mM NH4OH) and the following gradient: 0-2.0 min 0% B, 2.0-9.0 min 0-44% B, 9.0-11.0 min 44-100% solvent B, 11-13 min 100% B and 100-0% solvent B from 13-14 min and held at 0% B for an additional 8 min. EPI scans for each substrate and predicted product mass were included for each enzyme assay and source parameters were identical to those used for the QTRAP 4000 above except CE and DP which were based upon the optimum for each individual compound. Masses used can be found in table 3. Data were analyzed using Analyst 1.6.2.
Substrates were prepared in a 1 mM stock concentration then diluted to 100 μM working concentration for use in enzyme assays with the MND enzyme. […] All samples were diluted 10 fold with 50% MeOH and analyzed on the QTRAP 6500 using method 2 and a 20 μl injection volume. The percentage of substrate demethylation was calculated based upon reduction of substrate in the enzyme assay as compared to the negative control. […]

With `CN1CC[C@]23c4c5ccc(O)c4O[C@H]2C(=O)CC[C@H]3[C@H]1C5` [Hydromorphone], the Percent demethylated was 98%.
